Chains of the proteins cited; added tags and fusions are not shown.
UniProt P49760, whole entry: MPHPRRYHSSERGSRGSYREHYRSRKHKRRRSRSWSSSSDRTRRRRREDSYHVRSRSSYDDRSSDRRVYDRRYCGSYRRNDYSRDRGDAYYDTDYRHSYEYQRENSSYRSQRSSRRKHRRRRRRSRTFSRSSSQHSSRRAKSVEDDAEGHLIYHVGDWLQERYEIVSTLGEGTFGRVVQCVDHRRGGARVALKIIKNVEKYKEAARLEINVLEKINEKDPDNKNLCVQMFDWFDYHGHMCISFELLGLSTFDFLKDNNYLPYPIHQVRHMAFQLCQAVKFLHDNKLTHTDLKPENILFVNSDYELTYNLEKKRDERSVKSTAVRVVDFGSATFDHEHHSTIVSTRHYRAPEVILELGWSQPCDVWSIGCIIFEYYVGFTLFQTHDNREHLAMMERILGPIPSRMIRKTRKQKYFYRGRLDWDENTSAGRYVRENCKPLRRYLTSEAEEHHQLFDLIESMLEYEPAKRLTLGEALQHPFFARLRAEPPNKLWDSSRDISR

According to patent US20220062240A1, “METHODS OF TREATING CANCER USING A CLK INHIBITOR” (BioSplice Therapeutics, Inc., priority 2018, published 2022):

Biological target: T1, CLK2 (Homo sapiens, UniProt P49760)
T1 construct: purchased Thermo Fisher (Life Technologies), Z'-LYTE Kinase Assay Kits
Experiment: CLK2 kinase activity assay (Z-lyte, Ser/Thr 6 peptide)
Type: biochemical
Settings: Table 8 and text

## CN1CCN(c2cc(C(=O)Nc3cc4cc(-c5cnn(C)c5)ccc4cn3)ccn2)CC1 [Compound 12]
  IC50: 2 nM
